This passage reports IC50 results from US20070184519A1 (published 2007).

Broadly, the IC50 is the midpoint of a concentration-inhibition curve. A lower IC50 goes with inhibition by little substance.

Experiment [1] addresses DRB1*1302 (human, UniProt P01903 26-216, limits assumed). The experiment is described as follows: competition vs 125I probe peptide, purified MHC II.
For experiment [2], the target named is DRB1*0101 (human, UniProt P01903 26-216, limits assumed). The experiment is described as follows: competition vs 125I probe peptide, purified MHC II.
In experiment [3] the target is DRB1*0405 (human, UniProt P01903 26-216, limits assumed). Nature of the experiment: competition vs 125I probe peptide, purified MHC II.
Experiment [4] addresses DRB1*0701 (human, UniProt P01903 26-216, limits assumed). Nature of the experiment: competition vs 125I probe peptide, purified MHC II.
The target in experiment [5] is DRB1*1101 (human, UniProt P01903 26-216, limits assumed). The experiment is described as follows: competition vs 125I probe peptide, purified MHC II.
Experiment [6] deals with HLA-DR molecule DRB1*0301 (human). The experiment is described as follows: competition vs 125I probe, purified HLA.
For experiment [7], the target named is HLA-DR molecule DRB1*1302 (human). The experiment is described as follows: competition vs 125I probe, purified HLA.
The target in experiment [8] is HLA-DR molecule DRB1*1501 (human). Nature of the experiment: competition vs 125I probe, purified HLA.
Experiment [9] has as its target HLA-DR molecule DRB1*0901 (human). Nature of the experiment: competition vs 125I probe, purified HLA.
In experiment [10] the target is HLA-DR molecule DRB1*0404 (human). Nature of the experiment: competition vs 125I probe, purified HLA.
Experiment [11] has as its target HLA-DR molecule DRB1*0405 (human). The experiment is described as follows: competition vs 125I probe, purified HLA.
For experiment [12], the target named is HLA-DR molecule DRB1*1101 (human). The experiment is described as follows: competition vs 125I probe, purified HLA.
Experiment [13] has as its target HLA-DR molecule DRB1*0701 (human). The experiment is described as follows: competition vs 125I probe, purified HLA.
Experiment [14] deals with HLA-DR molecule DRB1*0401 (human). The experiment is described as follows: competition vs 125I probe, purified HLA.
Experiment [15] deals with HLA-DR molecule DRB1*0101 (human). Nature of the experiment: competition vs 125I probe, purified HLA.
The target of experiment [16] is HLA-DR DRB1*1302 (human). The experiment is described as follows: competition with 125I probe, purified MHC II.
Experiment [17] concerns the target HLA-DR DRB1*0802 (human). Nature of the experiment: competition with 125I probe, purified MHC II.
Experiment [18] has as its target HLA-DR DRB1*0901 (human). The experiment is described as follows: competition with 125I probe, purified MHC II.
For experiment [19], the target named is HLA-DR DRB1*1101 (human). Nature of the experiment: competition with 125I probe, purified MHC II.

Take DTFRKLFGVYSNFLR: the IC50 in [1] is 467 nM.

As to DTFRKLFRDYSNFLR, the figures for the IC50 in experiment [2], in experiment [3] and in experiment [4] were 196 nM, 966 nM and 17700 nM, respectively.

In [5], DTFRKLFRVRSNFLR yielded an IC50 of 0.91 nM.

In [5], DTFRKLFRVGSNFLR returned an IC50 of 2.3 nM.

On to GARSLTTLLRALGAQ [EPO 101 analog GARSLTTLLRALGAQ], for which the IC50 came to 19500 nM in [6], 4630 nM in experiment [7] and 282 nM in experiment [8].

GLRSLDTLLRALGAQ [EPO 101 analog GLRSLDTLLRALGAQ]: the IC50 is 303 nM in experiment [6] and 12300 nM in experiment [9].

For GLRSLTTDLRALGAQ [EPO 101 analog GLRSLTTDLRALGAQ], the IC50 in experiment [10] turned out to be 67 nM.

GLRSLTTLRRALGAQ [EPO 101 analog GLRSLTTLRRALGAQ] had an IC50 in experiment [11] of 706 nM.

In the case of GDRSLTTLLRALGAQ [EPO 101 analog GDRSLTTLLRALGAQ], the IC50 worked out at 8720 nM in experiment [11] and 6820 nM in [7].

Take GLRSLTTLDRALGAQ [EPO 101 analog GLRSLTTLDRALGAQ]: the IC50 came out at 3230 nM in experiment [9] and 5140 nM in [7].

Molecule GLRSLTTLKRALGAQ [EPO 101 analog GLRSLTTLKRALGAQ] displayed a concentration for half-maximal inhibition (IC50) in [12] of 0.58 nM. This counts as sub-nanomolar.

As to GLRSLTTLHRALGAQ [EPO 101 analog GLRSLTTLHRALGAQ], the IC50 amounted to 6070 nM in experiment [13] and 0.53 nM in experiment [12].

In the case of GQRSLTTLLRALGAQ [EPO 101 analog GQRSLTTLLRALGAQ], the IC50 is 345 nM in experiment [14] and 6050 nM in [7].

As to GLRDLTTLLRALGAQ [EPO 101 analog GLRDLTTLLRALGAQ], the IC50 in [6] amounted to 4460 nM; in experiment [9], 2530 nM; in experiment [12], 0.99 nM; in experiment [7] it was 4360 nM.

As to GLRSLTTLQRALGAQ [EPO 101 analog GLRSLTTLQRALGAQ], the 50% inhibitory concentration (IC50) in [15] amounted to 83 nM; in experiment [11], 8780 nM.

For the molecule GLRSLTGLLRALGAQ [EPO 101 analog GLRSLTGLLRALGAQ], the IC50 in experiment [14] amounted to 2510 nM; in [9], 2640 nM; in experiment [12], 4.6 nM; in [7] it was 697 nM.

Consider RDTGILDSIGRFFGGDRGAP [Hu MBP 33-52], for which the IC50 in experiment [16] was found to be 828 nM; in [17], 6320 nM; in experiment [18], 8900 nM; in experiment [19], 169 nM.
